# Values of other authors as cited in patent US20040018253A1, “Use of CYP2D6 inhibitors in combination therapies” (priority 1999, published 2004).
# Test system: CYP
# Conditions: cited from earlier work
substance,measurement,value
hyperforin,CYP inhibitory activity,exhibit CYP inhibitory activity
